Data published in article PMC5421785, “Citrullination only infrequently impacts peptide binding to HLA class II MHC” (PLoS ONE, 2017).

Sequences of proteins named here, by UniProt entry; tags and fusion partners are left off. Residues count along the entry.
UniProt P01920, 33-261: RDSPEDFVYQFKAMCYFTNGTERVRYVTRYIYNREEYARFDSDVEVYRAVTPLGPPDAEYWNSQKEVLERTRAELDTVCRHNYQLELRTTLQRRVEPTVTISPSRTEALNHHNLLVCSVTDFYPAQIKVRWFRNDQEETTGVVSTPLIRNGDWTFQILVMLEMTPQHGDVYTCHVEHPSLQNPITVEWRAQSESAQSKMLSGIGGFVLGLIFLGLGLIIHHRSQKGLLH

Target: DQB1*03:01 (Homo sapiens, UniProt P01909+P01920)
Experiment: HLA class II peptide binding, inhibition of radiolabeled peptide binding to purified MHC

**Q.** Which IC50 does the source give for `CC(C)C[C@H](NC(=O)[C@H](CCCCN)NC(=O)[C@H](CC(C)C)NC(=O)[C@@H](NC(=O)[C@H](CC(N)=O)NC(=O)[C@H](CCC(N)=O)NC(=O)[C@H](CCCCN)NC(=O)[C@@H](NC(=O)[C@H](Cc1ccc(O)cc1)NC(=O)[C@H](CCCCN)NC(=O)[C@@H]1CCCN1)C(C)C)[C@@H](C)O)C(=O)N[C@@H](C)C(=O)N[C@H](C(=O)O)[C@@H](C)O` [HA 307–319, reference compound] here?
**A.** The IC50 was 19.9 µM.
